{"source": "ChEMBL document CHEMBL1143143", "about": "“The influence of esters and carboxylic acids as the N-substituent of opioids. Part 1: Benzomorphans” (Bioorg Med Chem, 2008)", "system": "Mus musculus", "test": "Antinociceptive activity in sc dosed mouse by hot plate method", "format": "functional", "data": [{"compound": "C=CCN1CC[C@]23c4c5ccc(O)c4O[C@H]2[C@@H](O)C=C[C@H]3[C@H]1C5", "values": [{"measurement": "ED50", "value": 9.9, "unit": "mg/kg"}]}]}
